Results from patent US10618875B2 (priority 2017, dated 2020).

Experiments:
[1] = test system: Hep3B-luc human liver tumor; test: Hep3B-luc human liver cancer murine orthotopic model; assay type: in vivo, BALB/c nude mice; conditions: Sorafenib Tosylate 80 mg/kg + 25, 100, 200 or 300 mg/kg Compound A, 28 days
NCI-60 cell lines = test: NCI-60 cancer cell line panel growth, one-dose; assay type: cell-based, human; conditions: 10 μM, 48 h, SRB
[2] = test system: rats fed a high fat diet (HFD); test: Rat NAFLD model induced by HFD
[3] = test system: Zucker diabetic fatty (ZDF) rats; test: Zucker diabetic fatty (ZDF) rats
[4] = 7-day repeat dose mouse toxicity study; conditions: orally, levels as high as 500 mg/kg
[5] = test system: mice with induced fatty liver disease; test: Oral glucose tolerance test in MCD-fed mice; conditions: 5, 25, 100 mg/kg, five weeks of treatment; p<0.05 for 25 and 100 mg/kg, p<0.01 for 5 mg/kg
[6] = test system: MCD diet-induced NASH mouse liver; test: MCD diet induced NASH mouse model (liver lipid droplets, cytokines)
[7] = test system: mice with induced fatty liver disease; test: Serum ALT, AST and ALP liver enzymes after Compound A in MCD-fed mice; conditions: MCD mice, 5, 25, 100 mpk oral gavage, 4 weeks; significant at 5 and 100 mpk
[8] = test system: Diet Induced Animal Model of Non-alcoholic fatty liver Disease (DIAMOND) mice; test: Diet induced animal model of non-alcoholic fatty liver disease (DIAMOND)
[9] = Formation of DNP from Compound A by liver microsomes of different species; conditions: 2 μM Compound A, 0.5 mg/mL microsomes, with or without 1 mM NADPH
[10] = Formation of DNP from Compound B by human liver microsomes; conditions: 2 μM test compound
[11] = HFD rats, 0.1, 0.5, 5 mg/kg PO QD x 14 d, compared to vehicle control
[12] = HFD rats, all treatment doses, PO QD x 14 d
[13] = PO QD, between the study groups
[14] = 5 mpk, MCD diet-induced NASH mice
[15] = 5 mg/kg daily for 8 weeks, serum
[16] = DIAMOND mice, high dose (FIG. 33)

Cn1c(COc2ccc([N+](=O)[O-])cc2[N+](=O)[O-])cnc1[N+](=O)[O-]
effect of Sorafenib on BLI in combination with Compound A [1]: not augmented
delta of growth percent across all cell lines tested (NCI-60 cell lines): 26.47%
mean growth percent of control across the NCI-60 (NCI-60 cell lines): 98.63%
range of growth percent across all cell lines (NCI-60 cell lines): 40.14%
animals found dead (1500 mg/kg oral gavage, n=4, after 12 hours): one of the animals
toxicity (Compound A to mice compared to administering DNP directly): sharply reduced
Tmax (oral Compound A versus DNP, mice): delayed
Compound A detected in plasma (oral gavage 1-1500 mg/kg, mouse plasma): detected in plasma only in small amounts in the highest dosed animals
conversion of Compound A in vivo (PK analysis) (oral gavage, mouse plasma): hydrolyzed to DNP residue
serum FFA level [2, 11]: trended lower in a dose dependent manner
serum TG level [2, 11]: trended lower in a dose dependent manner
serum FFA level ([2]; HFD rats, after seven days of dosing, compared to vehicle): significant differences
liver FFA level [2, 12]: trended lower
liver HDL-C level [2, 12]: trended lower
liver LDL-C level [2, 12]: trended lower
liver TCHO level [2, 12]: trended lower
liver TG level [2, 12]: trended lower
liver ceramide level [2, 12]: trended lower
reduction of liver ceramide ([2]; HFD rats, highest dosed group (5 mg/kg)): reached significance
liver FFA level ([2]; HFD rats, two highest doses of Compound A (0.5 and 5 mg/kg)): significant reduction
NEFA (Free Fatty Acid, FFA) level ([3]; 0.1 mg/kg): trended lower
liver TG reduction ([3]; 5.0 mg/kg, p<0.05 compared with vehicle group): did reach statistical significance
body weight [3, 13]: no significant changes
food consumption [3, 13]: no significant changes
body weight ([3]; all dosing groups after day 36 compared to vehicle): trend towards lower body weights
blood TG (triglycerides) level ([3]; all study groups): lower than vehicle control
liver TG ([3]; all study groups): also lower
blood insulin level ([3]; all treatment groups, Day 57, ELISA): observed to be lower
food consumption ([3]; highest Compound A dosing group (5.0 mg/kg)): trend towards higher food consumption
NEFA (Free Fatty Acid, FFA) level ([3]; two groups with the highest levels of Compound A (0.5 and 5.0 mg/kg), vs vehicle): significantly lower
kidney dysfunction as measured by creatinine in the blood [4]: did not cause kidney dysfunction
blood glucose level 120 minutes after glucose challenge (OGTT) [5]: statistically significant
lipid droplets in liver ([6]; 5 mpk, 6 weeks of treatment): sharply reduced
liver IL-1β [6, 14]: decreased
liver TNFα [6, 14]: decreased
steatohepatitis in liver ([6]; MCD diet-induced NASH mouse liver): reduces
ALT level [7]: reduced in a dose-dependent manner
AST level [7]: reduced in a dose-dependent manner
liver weight ([8]; 5 mg/kg daily for 8 weeks): statistically significant lower
total cholesterol ([8]; 5 mg/kg daily for 8 weeks): statistically significant lower
ALP [8, 15]: statistically significant lower
ALT [8, 15]: statistically significant lower
ASP [8, 15]: statistically significant lower
body weight ([8]; 5 mg/kg daily for 8 weeks, week 20): significant body weight reduction
lobular inflammation ([8]; DIAMOND mice, 8 weeks of treatment): significantly reduced
NAS [8, 16]: significantly lowered
SAF activity score [8, 16]: significantly lowered
progression to NASH ([8]; DIAMOND mice, all controls progressed to NASH): only one mouse on compound A progressed to NASH
formation of DNP in liver microsomes [9]: requires NADPH

Cn1c([N+](=O)[O-])cnc1COc1ccc([N+](=O)[O-])cc1[N+](=O)[O-]
Formation Percentage ([10]; With NADPH, 0 min): 1.56%
Formation of DNP ([10]; With NADPH, 0 min): 0.031 µM
Formation Percentage ([10]; With NADPH, 15 min): 1.90%
Formation of DNP ([10]; With NADPH, 15 min): 0.038 µM
Formation Percentage ([10]; With NADPH, 30 min): 1.26%
Formation of DNP ([10]; With NADPH, 30 min): 0.025 µM
Formation Percentage ([10]; With NADPH, 45 min): 1.13%
Formation of DNP ([10]; With NADPH, 45 min): 0.023 µM
Formation Percentage ([10]; With NADPH, 60 min): 0.91%
Formation of DNP ([10]; With NADPH, 60 min): 0.018 µM
Formation Percentage ([10]; Without NADPH, 0 min): 0.83%
Formation of DNP ([10]; Without NADPH, 0 min): 0.017 µM
Formation Percentage ([10]; Without NADPH, 15 min): 0.75%
Formation of DNP ([10]; Without NADPH, 15 min): 0.015 µM
Formation Percentage ([10]; Without NADPH, 30 min): 0.72%
Formation of DNP ([10]; Without NADPH, 30 min): 0.014 µM
Formation Percentage ([10]; Without NADPH, 45 min): 0.69%
Formation of DNP ([10]; Without NADPH, 45 min): 0.014 µM
Formation Percentage ([10]; Without NADPH, 60 min): 0.63%
Formation of DNP ([10]; Without NADPH, 60 min): 0.013 µM
